RXFP1 antagonist: antagonists of human relaxin receptor RXFP1; HEK293-RXFP1, relaxin-stimulated cAMP HTRF, 30 min; active compounds read low; activity change, negative = inhibition, % at 57.5 µM; actives 0.59% (n = 350,000); Q9HBX9;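 active means activity change of -60% or lower, but not beyond a set lower limit; inconclusive means change between -60% and -40%, or beyond the set limit; inactive means change above -40%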; further: on the % scale 0 is the no-effect control and ±100 the full control effect
ERG-DNA inh: inhibitors of human ERG Ets domain-DNA interaction | P11308 | fluorescence polarization, His-ERG Ets domain / labelled DNA | Potency, µM (doses to about 76.9 µM), for the others: at the highest dose FP activity, negative = inhibition, most hits filed as inhibitors | actives 0.028% (n = 370,000) | AID 624246; active means well fitted inhibition curve with a large enough effect in the polarisation, with a control signal flat; inconclusive means small, poorly fitted or top-dose-only effect, or effect the other way, or a change in a side signal; inactive means no such curve, though single readings can be large or run the other way; the % refers to the polarisation;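 further: polarization taken with two DNA probes labelled with fluorescein and Texas red; potency means the concentration at half of the fitted maximal effect; % of control where 0% means no effect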
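His-tagged ERG Ets domain (1 uM in the protein solution; 300mM KCl, 50mM Tris-HCl, 1mM EDTA, 1mM DTT, pH 7.5) received compound, then a probe mix of 5 nM fluorescein-DNA and 100nM Texas-615-DNA. Fluorescence polarization was read for both dyes.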
RXFP1 ag: activates the human relaxin receptor RXFP1 | Q9HBX9 | HEK293T-RXFP1 cAMP TR-FRET, 30 min; response scale: percent of porcine relaxin response, buffer zero | Potency, µM (doses to about 57.5 µM), for the others: top-dose activation, most hits filed as activators | actives 0.3% (n = 370,000) | AID 2676; further: potency means the concentration at half of the fitted maximal effect; on the % scale 0 is the no-effect control and ±100 the full control effect; nearly all actives have a fitted effect of over 60% in size
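HEK293T cells stably expressing RXFP1 were pretreated with the PDE4 inhibitor Ro 20174, exposed to compounds for 30 min at 37C, lysed, and cAMP was read by TR-FRET. Data normalized to buffer (basal) and 29 nM porcine relaxin (100%).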
ASM inhibitor: inhibitors of human secretory acid sphingomyelinase; P17405; placental ASM, HMU-PC fluorogenic substrate, 60 min; Potency, µM (top dose mostly 57.5 µM), without a hit: at the top dose activity change, negative = inhibition, actives largely listed as inhibitors; actives 0.006% (n = 340,000); AID 504937; further: potency means the concentration at half of the fitted maximal effect
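Steps: dispense placental human ASM, pin compound, wait 10 min at room temperature, add HMU-PC0 substrate at 9 uM final, incubate 60 min at 37 °C, add stop solution raising pH to 10, read fluorescence.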
Mito fusion yeast: blocks mitochondrial division or promotes mitochondrial fusion. AID 485298. S. cerevisiae fusion-defective mutant growth rescue, CellTiterGlo 48 h. actives 0.23% (n = 320,000). Potency, µM (series often up to 46.1 µM), for inactives: at the top dose growth rescue (activation), most hits filed as activators; further: potency means the concentration at half of the fitted maximal effect; % of control where 0% means no effect; nearly all actives have a fitted effect of over 45% in size
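Read-out: ATP-based luminescence (CellTiterGlo, 10 min ambient) reporting growth of fusion-defective ts yeast after 48 hours at 37C on glycerol/ethanol YPEG medium in the presence of compound.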
miR-21 reporter: miR-21 reporter, rising signal | AID 2288 | HeLa miR-21 FLuc reporter, luciferase, 48 h | 340,000 tested, under 10 active | Potency, µM (titrated, usually from 38.3 µM), for the others: at the top dose reporter change, positive = more light; active = well fitted rising curve with a large enough effect; inconclusive = small, poorly fitted or top-dose-only effect; inactive = no such curve, though single readings can be large or run the other way;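 also: % of control where 0% means no effect; miR-21 action dims this reporter so a rising signal means less miR-21 action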
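HeLa cells stably expressing CMV-driven firefly luciferase with a downstream miR-21 binding sequence, endogenously expressing miR-21, were treated with titrations (up to about 40uM final) for 48 hours at 37 degree Celsius. Luciferase luminescence was read after lysis.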
* hit, by the source's call; u = inconclusive; x = no result. Shown are actives, neighbours in structure and some others; about 0.72% of the full set was active somewhere. Unless noted, the call rests on the fitted dose curve; in most records, active means well fitted curve in the direction sought with a large enough effect; inconclusive means small, poorly fitted or top-dose-only effect, or another doubt; inactive means no such curve, though single readings can be large; an effect the other way counts as inactive or inconclusive.

#1 CC1Cc2cc(S(=O)(=O)N3CCN(c4ccccc4F)CC3)ccc2N1C(=O)C1CC1 (stereo unspecified)
#2 CC1=CSC2=NC(=O)/C(=C/c3cccc(OC(=O)c4ccco4)c3)C(=N)N12
#3 COc1cc(/C=C2/C(=N)N3OC(C)=CC3=NC2=O)ccc1OC(=O)c1ccco1
#4 COc1ccc(Cl)cc1S(=O)(=O)Nc1cccc(-c2ccc(N3CCCC3)nn2)c1
#5 Cc1ccc(C(=O)Oc2ccc(C(O)CNC(C)(C)C)cc2OC(=O)c2ccc(C)cc2)cc1 (stereo unspecified)
entry no.	1	2	3	4	5
RXFP1 antagonist	-5	-80*	-75*	0	18
ERG-DNA inh	5%	-3%	10%	-5%	x
RXFP1 ag	1%	-1%	2%	0%	x
ASM inhibitor	-1%	-3%	15%	x	x
Mito fusion yeast	9%	1%	-3%	x	x
miR-21 reporter	1%	-1%	2%	-11%	x

#6 CC(C)c1ccc(NC(=O)C(Cc2ccccc2)n2cccc2)cc1 (stereo unspecified)
#7 O=C(Nc1ccc(C(F)(F)F)cc1)C(Cc1ccccc1)n1cccc1 (stereo unspecified)
#8 CC1C(=O)N2CCCc3cc(S(=O)(=O)NCCc4ccccc4)cc1c32 (stereo unspecified)
#9 COc1ccc(CCNS(=O)(=O)c2cc3c4c(c2)C(C)C(=O)N4CCC3)cc1OC (stereo unspecified)
#10 CCOC(=O)C1=C(COC(=O)/C=C/c2ccc(SC)cc2)NC(=O)NC1C (stereo unspecified)
entry no.	6	7	8	9	10
RXFP1 antagonist	-71*	-31	-12	-92*	-76*
ERG-DNA inh	10%	8%	117%	-7%	0%
RXFP1 ag	4%	0%	2%	-1%	0%
ASM inhibitor	x	x	4%	3%	56%
Mito fusion yeast	x	x	-8%	6%	7%
miR-21 reporter	14%	u	2%	-4%	x

A different layout for 3 compounds above:
# | smiles | RXFP1 antagonist | ERG-DNA inh | RXFP1 ag | ASM inhibitor | Mito fusion yeast | miR-21 reporter
8 | CC1C(=O)N2CCCc3cc(S(=O)(=O)NCCc4ccccc4)cc1c32 (stereo unspecified) | -12 | 117% | 2% | 4% | -8% | 2%
9 | COc1ccc(CCNS(=O)(=O)c2cc3c4c(c2)C(C)C(=O)N4CCC3)cc1OC (stereo unspecified) | -92* | -7% | -1% | 3% | 6% | -4%
10 | CCOC(=O)C1=C(COC(=O)/C=C/c2ccc(SC)cc2)NC(=O)NC1C (stereo unspecified) | -76* | 0% | 0% | 56% | 7% | x

Continuation.
#11 CCN1CCN(CC(=O)N2N=C(c3cccs3)CC2c2ccc(OC)c(OC)c2)C(=O)C1=O (stereo unspecified)
#12 C=C1C(=O)c2sccc2C(c2ccc(OC)c(OC)c2)C1COC(C)=O (stereo unspecified)
#13 CC(C)CC1NC(=O)N(CC(=O)Nc2ccc3c(c2)OCCO3)C1=O (stereo unspecified)
#14 O=C(O)c1ccccc1NS(=O)(=O)c1ccc(NN=Cc2cccc(Cl)c2)c([N+](=O)[O-])c1
#15 COc1ccc2c(c1OC)C(=O)N1N=C(c3ccc(Br)cc3)CC21 (stereo unspecified)
entry no.	11	12	13	14	15
RXFP1 antagonist	-3	-104*	-1	-68*	-9
ERG-DNA inh	-7%	-8%	x	8%	3%
RXFP1 ag	0%	x	1%	x	1%
ASM inhibitor	-4%	-2%	0%	-20%	-6%
Mito fusion yeast	0%	x	-1%	x	16µM*
miR-21 reporter	-3%	x	x	x	-4%

#16 Cc1cccc(C(=O)N(Cc2ccco2)Cc2ccccc2F)c1
#17 CCc1ccc(CN2CCc3nc(Nc4ccccc4)ncc3C2)cc1
#18 Nc1cccc(CCc2nc3cc4ccccc4cc3[nH]2)c1
#19 c1ccc(CCc2nc3ccccc3[nH]2)cc1
#20 CCn1c(=O)c2c(nc(C=Cc3ccc(OC)c(OC)c3)n2C)n(CC)c1=O
entry no.	16	17	18	19	20
RXFP1 antagonist	-72*	-65*	-5	10	-11
ERG-DNA inh	-11%	-2%	-1%	-1%	x
RXFP1 ag	-3%	2%	6%	0%	x
ASM inhibitor	x	x	-1%	-4%	x
Mito fusion yeast	x	x	20µM*	-15%	x
miR-21 reporter	u	-2%	-26%	-73%	x

#21 CSc1cccc(NC(=O)C2CCCN(S(=O)(=O)c3cnc[nH]3)C2)c1 (stereo unspecified)
#22 CSc1cccc(NC(=O)C2CCN(S(=O)(=O)c3cnc[nH]3)CC2)c1
#23 CCc1ccc(NC(=O)C2CCCN(S(=O)(=O)c3cnc[nH]3)C2)cc1 (stereo unspecified)
#24 COc1ccc(N(Cc2cccs2)C(=O)Nc2cccc(Cl)c2)cc1
entry no.	21	22	23	24
RXFP1 antagonist	x	-63*	-116*	-27
ERG-DNA inh	16%	-5%	9%	0%
RXFP1 ag	0%	3%	-2%	1%
ASM inhibitor	2%	22%	8%	x
Mito fusion yeast	1%	-1%	1%	x
miR-21 reporter	-1%	2%	-8%	-5%

Bioassay records from PubChem BioAssay.
